PMC11364775, “Ion occupancy of the selectivity filter controls opening of a cytoplasmic gate in the K2P channel TALK-2” (Nature Communications, 2024)

Sequences of proteins named here, by UniProt entry; tags and fusion partners are left off.
UniProt Q96T54, whole entry L145C: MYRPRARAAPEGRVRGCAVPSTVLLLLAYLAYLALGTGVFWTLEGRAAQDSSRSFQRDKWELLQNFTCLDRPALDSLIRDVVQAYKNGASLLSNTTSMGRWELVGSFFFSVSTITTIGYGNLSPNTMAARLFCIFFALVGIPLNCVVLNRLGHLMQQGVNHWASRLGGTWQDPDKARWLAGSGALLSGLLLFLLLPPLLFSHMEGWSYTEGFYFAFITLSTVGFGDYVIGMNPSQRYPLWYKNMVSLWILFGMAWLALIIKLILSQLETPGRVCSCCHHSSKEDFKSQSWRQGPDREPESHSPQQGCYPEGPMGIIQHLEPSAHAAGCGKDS
UniProt Q96T54, whole entry Q266C: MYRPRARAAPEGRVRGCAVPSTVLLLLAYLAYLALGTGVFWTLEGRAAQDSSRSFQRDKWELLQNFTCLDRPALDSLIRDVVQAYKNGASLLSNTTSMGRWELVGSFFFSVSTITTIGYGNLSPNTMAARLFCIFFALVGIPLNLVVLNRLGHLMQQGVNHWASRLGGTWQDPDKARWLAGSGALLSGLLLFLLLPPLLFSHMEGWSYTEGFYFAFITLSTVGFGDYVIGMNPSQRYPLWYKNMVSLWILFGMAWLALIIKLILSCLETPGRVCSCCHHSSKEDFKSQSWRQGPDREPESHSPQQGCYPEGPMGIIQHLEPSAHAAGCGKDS
UniProt Q96T54, whole entry L145C/L264A: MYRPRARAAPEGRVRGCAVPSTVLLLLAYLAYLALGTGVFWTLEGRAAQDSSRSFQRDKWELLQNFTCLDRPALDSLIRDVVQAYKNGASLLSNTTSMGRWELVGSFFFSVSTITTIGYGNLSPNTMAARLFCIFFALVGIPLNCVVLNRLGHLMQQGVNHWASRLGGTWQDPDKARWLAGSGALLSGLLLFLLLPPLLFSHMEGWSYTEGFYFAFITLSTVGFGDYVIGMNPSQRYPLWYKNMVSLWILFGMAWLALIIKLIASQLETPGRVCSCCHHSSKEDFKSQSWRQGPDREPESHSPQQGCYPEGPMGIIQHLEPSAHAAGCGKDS
UniProt Q96T54, whole entry L145C/V146A: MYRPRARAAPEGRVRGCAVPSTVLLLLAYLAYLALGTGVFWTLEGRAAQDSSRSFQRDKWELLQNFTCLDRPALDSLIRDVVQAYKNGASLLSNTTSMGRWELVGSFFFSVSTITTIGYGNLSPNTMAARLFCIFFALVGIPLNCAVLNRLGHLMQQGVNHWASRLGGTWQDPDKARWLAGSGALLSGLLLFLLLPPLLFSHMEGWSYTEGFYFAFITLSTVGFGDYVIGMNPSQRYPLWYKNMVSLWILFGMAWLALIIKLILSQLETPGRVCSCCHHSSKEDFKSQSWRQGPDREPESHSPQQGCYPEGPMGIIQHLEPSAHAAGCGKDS
UniProt Q96T54, whole entry L145C/L262A: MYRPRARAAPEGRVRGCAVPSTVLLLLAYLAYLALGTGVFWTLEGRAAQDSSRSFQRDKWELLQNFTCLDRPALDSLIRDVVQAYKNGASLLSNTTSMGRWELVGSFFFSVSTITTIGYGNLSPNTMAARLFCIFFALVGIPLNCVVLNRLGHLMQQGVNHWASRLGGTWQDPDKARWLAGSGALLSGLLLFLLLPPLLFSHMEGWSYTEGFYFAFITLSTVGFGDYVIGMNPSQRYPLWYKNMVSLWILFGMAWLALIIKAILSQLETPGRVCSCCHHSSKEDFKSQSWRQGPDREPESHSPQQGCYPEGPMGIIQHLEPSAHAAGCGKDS
UniProt Q96T54, whole entry L145C/W255A: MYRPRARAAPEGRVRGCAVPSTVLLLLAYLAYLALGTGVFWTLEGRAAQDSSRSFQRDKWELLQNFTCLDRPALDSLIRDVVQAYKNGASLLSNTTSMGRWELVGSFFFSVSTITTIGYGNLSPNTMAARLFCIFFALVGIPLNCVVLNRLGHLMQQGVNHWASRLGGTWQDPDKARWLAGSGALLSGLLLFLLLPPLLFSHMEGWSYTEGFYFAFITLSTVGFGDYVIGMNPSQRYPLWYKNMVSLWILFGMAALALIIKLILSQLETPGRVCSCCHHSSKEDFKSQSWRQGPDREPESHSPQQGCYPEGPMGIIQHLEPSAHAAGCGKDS

Experiments:
TALK-2 L145C channels [1] = target: T1, TALK-2 L145C channels (Homo sapiens, UniProt Q96T54, L145C); test: Inside-out patch-clamp, ligand activation of channel currents at +40 mV (oocytes)
TALK-2 Q266C channels [2] = target: T2, TALK-2 Q266C channels (Homo sapiens, UniProt Q96T54, Q266C); test: as above
TALK-2 L145C channels [3] = target: T1, TALK-2 L145C channels; test: Cysteine modification assay with MTS-ET (inside-out patch); details: for time constant (τ) of MTS-ET modification: 1.0 mM MTS-ET, +40 mV; for Modification rate: TALK-2 L145C
TALK-2 Q266C channels [4] = target: T2, TALK-2 Q266C channels; test: as above; details: for time constant (τ) of MTS-ET modification: 1.0 mM MTS-ET
TALK-2 L264A/L145C = TALK-2 L264A/L145C (Homo sapiens, UniProt Q96T54, L145C/L264A); test: as above; details: no ligand activation, +40 mV
TALK-2 V146A/L145C = TALK-2 V146A/L145C (Homo sapiens, UniProt Q96T54, L145C/V146A); test: as above; details: +40 mV, no ligand activation
TALK-2 L262A/L145C = TALK-2 L262A/L145C (Homo sapiens, UniProt Q96T54, L145C/L262A); test: as above; details: +40 mV, no ligand activation
TALK-2 W255A/L145C = TALK-2 W255A/L145C (Homo sapiens, UniProt Q96T54, L145C/W255A); test: as above; details: +40 mV, no ligand activation

**Q.** Which “Fold Rb+ activation” value (TALK-2 L145C channels [1]) does the source give for `[Rb+]` [Rb^+] here?
**A.** The value was 9.03 fold.

**Q.** What about the “Fold Rb+ activation” value (TALK-2 Q266C channels [2]) of the same molecule?
**A.** Its value is 8.30 fold.

**Q.** With `C[N+](C)(C)CCSS(C)(=O)=O.[Cl-]` [MTS-ET] as the molecule, how does the “time constant (τ) of MTS-ET modification” value (TALK-2 L145C channels [3]; pre-activated with 5.0 μM oleoyl-CoA) read?
**A.** Its value is 13.5 ± 2.1 s.

**Q.** What about the “time constant (τ) of MTS-ET modification” value (TALK-2 L145C channels [3]; pre-activated with 1.0 mM 2-APB) of the same molecule?
**A.** The value was 12.3 ± 1.2 s.

**Q.** What about the Modification rate (TALK-2 L145C channels [3]; voltage 20 mV) of the same molecule?
**A.** The Modification rate was 0.022 s⁻¹.

**Q.** What about the Modification rate (TALK-2 L145C channels [3]; voltage 40 mV) of the same molecule?
**A.** The Modification rate was 0.060 s⁻¹.

**Q.** And the Modification rate (TALK-2 L145C channels [3]; voltage 80 mV)?
**A.** Its Modification rate is 0.177 s⁻¹.

**Q.** What about the Modification rate (TALK-2 L145C channels [3]; voltage 115 mV) of the same molecule?
**A.** Its Modification rate is 0.233 s⁻¹.

**Q.** What about the Modification rate (TALK-2 L145C channels [3]; voltage 140 mV) of the same molecule?
**A.** Its Modification rate is 0.265 s⁻¹.

**Q.** What about the “effect of MTS-ET on channel currents” value (TALK-2 L145C channels [3]; currents activated by 2-APB or oleoyl-CoA) of the same molecule?
**A.** Its value is “complete and irreversible current inhibition”.

**Q.** And the “effect of MTS-ET on channel activity” value (TALK-2 L145C channels [3]; low activity basal state)?
**A.** The value was “no effect”.

**Q.** What about the “time constant (τ) of MTS-ET modification” value (TALK-2 Q266C channels [4]; 5.0 μM oleoyl-CoA) of the same molecule?
**A.** Its value is 11.5 ± 2.0 s.

**Q.** And the “time constant (τ) of MTS-ET modification” value (TALK-2 Q266C channels [4]; 1.0 mM 2-APB)?
**A.** The value was 7.1 ± 0.8 s.

**Q.** What about the “time constant (τ) of MTS-ET modification” value (TALK-2 Q266C channels [4]; basal (unstimulated) state) of the same molecule?
**A.** Its value is 7.1 ± 0.7 s.

**Q.** And the “effect of MTS-ET on channel currents” value (TALK-2 Q266C channels [4]; TALK-2 Q266C)?
**A.** Its value is “mono-exponential and irreversible current activation”.

**Q.** What about the “time constant (τ) of MTS-ET modification” value (TALK-2 L264A/L145C; 1.0 mM MTS-ET) of the same molecule?
**A.** Its value is 0.4 ± 0.1 s.

**Q.** What about the Modification rate (TALK-2 L264A/L145C; TALK-2 L264A/L145C) of the same molecule?
**A.** The Modification rate was 1.70 s⁻¹.

**Q.** And the Modification rate (TALK-2 V146A/L145C)?
**A.** The Modification rate was 0.24 s⁻¹.

**Q.** And the Modification rate (TALK-2 L262A/L145C)?
**A.** The Modification rate was 0.13 s⁻¹.

**Q.** What about the Modification rate (TALK-2 W255A/L145C) of the same molecule?
**A.** The Modification rate was 0.09 s⁻¹.

**Q.** Which results are given for `c1ccc(-c2nn[nH]n2)c(Nc2cccc3c2CCCC3)c1` [BL-1249]?
**A.** Fold activation 50 µM BL-1249 (TALK-2 L145C channels [1]; 50 µM): 94.95 fold; Fold activation 50 µM BL-1249 (TALK-2 Q266C channels [2]; 50 µM): 77.17 fold

**Q.** `CCCCCCCC/C=C\CCCCCCCC(=O)SCCNC(=O)CCNC(=O)[C@H](O)C(C)(C)COP(=O)(O)OP(=O)(O)OC[C@H]1O[C@@H](n2cnc3c(N)ncnc32)[C@H](O)[C@@H]1OP(=O)(O)O` [oleoyl-CoA] was tested. Which “tau of modification” value (TALK-2 L145C channels [3]; MTS-ET modification in the presence of 5 µM Oleoyl-CoA) did it give?
**A.** Its value is 13.49 s.

**Q.** What about the “Fold activation 5 µM oleoyl-CoA” value (TALK-2 L145C channels [1]; 5 µM) of the same molecule?
**A.** Its value is 14.99 fold.

**Q.** What about the “Fold activation 5 µM oleoyl-CoA” value (TALK-2 Q266C channels [2]; 5 µM) of the same molecule?
**A.** The value was 13.63 fold.
